Values quoted from earlier work as cited in PMC4368888, “Preclinical to Clinical Translation of CNS Transporter Occupancy of TD-9855, a Novel Norepinephrine and Serotonin Reuptake Inhibitor” (International Journal of Neuropsychopharmacology, 2015).

The chains behind the UniProt entries cited, without tags or fusion partners.
UniProt P23975, whole entry: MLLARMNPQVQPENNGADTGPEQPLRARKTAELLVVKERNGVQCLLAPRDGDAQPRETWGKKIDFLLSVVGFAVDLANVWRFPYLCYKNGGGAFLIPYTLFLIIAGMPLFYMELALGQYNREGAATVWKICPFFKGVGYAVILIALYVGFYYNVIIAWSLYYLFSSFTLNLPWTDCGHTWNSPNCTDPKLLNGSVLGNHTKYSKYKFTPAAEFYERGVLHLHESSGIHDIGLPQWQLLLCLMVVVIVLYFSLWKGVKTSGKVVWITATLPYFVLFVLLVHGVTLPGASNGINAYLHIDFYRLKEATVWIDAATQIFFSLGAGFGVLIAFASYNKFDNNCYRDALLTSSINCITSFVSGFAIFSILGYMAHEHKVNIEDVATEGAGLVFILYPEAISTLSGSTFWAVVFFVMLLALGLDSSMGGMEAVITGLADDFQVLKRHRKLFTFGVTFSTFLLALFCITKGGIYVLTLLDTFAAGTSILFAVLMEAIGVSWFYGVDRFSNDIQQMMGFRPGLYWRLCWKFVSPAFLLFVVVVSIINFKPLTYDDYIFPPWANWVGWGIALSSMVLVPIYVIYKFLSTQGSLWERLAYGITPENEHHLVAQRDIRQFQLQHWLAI

How the values were obtained:
NET = NET (Homo sapiens, UniProt P23975); conditions: dose 75mg; ref Sekine et al., 2010; Takano et al., 2014; cited from earlier work
SERT and NET = conditions: in vitro; ref Wu et al., 2008; Tsuruda et al., 2010; cited from earlier work

| SMILES | NET occupancy (NET) | functional selectivity for NE (SERT and NET) |
| --- | --- | --- |
| CNCCC=C1c2ccccc2CCc2ccccc21 [nortriptyline] | ~ 50% |  |
| CCOc1ccccc1O[C@@H](c1ccccc1)[C@@H]1CNCCO1 [esreboxetine] |  | ≥ 10 000 fold |
